Experimental findings from patent publication US20220296584A1, “Membrane Active Molecules” (priority 2017, published 2022) are described below.

Where two headings read alike, the source gives them in different places.

The data set has as its system mice. To be noted: intravenously.

For ethyl isovaleric acid, the Lethality result is, setting by setting: (250 mM solution in intralipid) “lethal”; (1M solution in intralipid) “lethal”.
